Values quoted from earlier work in patent publication US20090137538A1, “METHOD OF TREATING ATROPHIC VAGINITIS” (priority 2006, published 2009).

Test system: endometrium
Conditions: cited from earlier work

For `C[C@]12CC[C@@H]3c4ccc(O)cc4CC[C@H]3[C@@H]1C[C@@H](O)[C@@H]2O` [Estriol, 16-alpha, 17-beta, estra 1,3,5 (10) triene 3, 16, 17-triol], the “odds ratio for endometrial atypical hyperplasia” value (in vivo, po) is given as 8.3 and the “odds ratio for endometrial atypical hyperplasia” value (oral use, exposed less than 5 years, never use 1.0) is given as 2.2.

Where two headings read alike, the source gives them in different places.
